Source: the supplement of paper PMC11403291

Chains of the proteins cited; added tags and fusions are not shown. Lines headed by an entry give the natural chain unless they say otherwise; changes in a name come on top.
UniProt Q15746, whole entry: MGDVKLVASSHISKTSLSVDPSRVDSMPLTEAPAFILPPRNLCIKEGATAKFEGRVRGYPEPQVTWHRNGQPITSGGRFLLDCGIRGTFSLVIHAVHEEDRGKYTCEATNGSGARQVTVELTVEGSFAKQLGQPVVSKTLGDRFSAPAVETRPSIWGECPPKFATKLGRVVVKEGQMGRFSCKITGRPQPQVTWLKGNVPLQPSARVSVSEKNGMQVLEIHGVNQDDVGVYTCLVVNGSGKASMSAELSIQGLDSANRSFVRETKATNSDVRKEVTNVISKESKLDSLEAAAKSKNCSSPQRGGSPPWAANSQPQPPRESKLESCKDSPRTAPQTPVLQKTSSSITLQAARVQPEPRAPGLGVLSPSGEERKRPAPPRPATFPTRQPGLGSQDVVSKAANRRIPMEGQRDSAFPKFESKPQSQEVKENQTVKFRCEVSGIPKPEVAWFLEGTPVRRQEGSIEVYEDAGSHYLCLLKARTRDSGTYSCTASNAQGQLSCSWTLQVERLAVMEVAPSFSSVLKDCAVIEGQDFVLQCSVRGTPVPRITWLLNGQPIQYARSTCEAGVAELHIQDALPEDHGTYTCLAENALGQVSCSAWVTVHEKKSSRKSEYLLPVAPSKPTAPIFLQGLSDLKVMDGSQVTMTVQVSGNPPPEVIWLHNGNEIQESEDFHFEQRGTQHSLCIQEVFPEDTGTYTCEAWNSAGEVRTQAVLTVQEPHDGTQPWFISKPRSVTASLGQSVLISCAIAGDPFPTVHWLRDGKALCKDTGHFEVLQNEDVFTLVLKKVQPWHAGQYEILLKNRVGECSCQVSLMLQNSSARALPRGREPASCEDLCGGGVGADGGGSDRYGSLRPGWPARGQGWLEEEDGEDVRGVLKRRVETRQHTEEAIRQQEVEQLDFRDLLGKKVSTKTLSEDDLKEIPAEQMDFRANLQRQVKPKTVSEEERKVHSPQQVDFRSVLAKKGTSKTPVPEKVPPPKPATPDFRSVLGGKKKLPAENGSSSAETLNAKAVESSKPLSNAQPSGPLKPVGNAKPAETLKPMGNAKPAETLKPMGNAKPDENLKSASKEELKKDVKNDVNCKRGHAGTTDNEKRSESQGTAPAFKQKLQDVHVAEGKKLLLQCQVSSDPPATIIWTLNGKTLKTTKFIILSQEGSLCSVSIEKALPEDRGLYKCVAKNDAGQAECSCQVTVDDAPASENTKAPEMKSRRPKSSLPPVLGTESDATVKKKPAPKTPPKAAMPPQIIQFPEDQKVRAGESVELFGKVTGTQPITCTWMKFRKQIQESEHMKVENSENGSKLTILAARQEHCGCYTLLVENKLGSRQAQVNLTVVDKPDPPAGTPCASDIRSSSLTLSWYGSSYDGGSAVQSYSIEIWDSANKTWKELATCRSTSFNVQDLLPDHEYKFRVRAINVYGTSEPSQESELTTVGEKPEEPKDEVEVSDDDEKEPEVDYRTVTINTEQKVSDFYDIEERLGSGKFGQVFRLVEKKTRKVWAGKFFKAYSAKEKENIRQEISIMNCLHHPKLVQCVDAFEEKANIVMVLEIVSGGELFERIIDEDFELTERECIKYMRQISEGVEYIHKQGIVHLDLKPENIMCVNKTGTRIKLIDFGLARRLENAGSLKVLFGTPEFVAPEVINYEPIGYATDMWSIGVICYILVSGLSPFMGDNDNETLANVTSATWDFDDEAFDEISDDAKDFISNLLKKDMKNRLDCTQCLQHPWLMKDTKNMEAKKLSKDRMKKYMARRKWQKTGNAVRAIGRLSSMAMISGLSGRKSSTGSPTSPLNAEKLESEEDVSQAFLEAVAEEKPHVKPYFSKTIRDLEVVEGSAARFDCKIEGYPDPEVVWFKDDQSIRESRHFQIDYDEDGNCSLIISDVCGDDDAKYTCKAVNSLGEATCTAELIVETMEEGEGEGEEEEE
UniProt Q9NWZ3, whole entry: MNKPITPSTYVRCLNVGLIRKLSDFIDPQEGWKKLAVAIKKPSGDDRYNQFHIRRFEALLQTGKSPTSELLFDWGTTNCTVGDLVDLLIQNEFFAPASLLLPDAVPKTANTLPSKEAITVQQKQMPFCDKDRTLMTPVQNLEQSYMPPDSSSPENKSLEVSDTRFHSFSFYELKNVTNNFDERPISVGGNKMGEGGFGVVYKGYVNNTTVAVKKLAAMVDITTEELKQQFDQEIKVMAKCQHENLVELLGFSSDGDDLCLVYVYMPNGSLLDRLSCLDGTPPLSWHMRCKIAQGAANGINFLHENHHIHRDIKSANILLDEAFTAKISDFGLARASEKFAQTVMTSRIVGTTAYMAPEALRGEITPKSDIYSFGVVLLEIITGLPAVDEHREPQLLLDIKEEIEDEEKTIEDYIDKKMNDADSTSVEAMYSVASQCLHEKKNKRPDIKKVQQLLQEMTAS
UniProt P16591: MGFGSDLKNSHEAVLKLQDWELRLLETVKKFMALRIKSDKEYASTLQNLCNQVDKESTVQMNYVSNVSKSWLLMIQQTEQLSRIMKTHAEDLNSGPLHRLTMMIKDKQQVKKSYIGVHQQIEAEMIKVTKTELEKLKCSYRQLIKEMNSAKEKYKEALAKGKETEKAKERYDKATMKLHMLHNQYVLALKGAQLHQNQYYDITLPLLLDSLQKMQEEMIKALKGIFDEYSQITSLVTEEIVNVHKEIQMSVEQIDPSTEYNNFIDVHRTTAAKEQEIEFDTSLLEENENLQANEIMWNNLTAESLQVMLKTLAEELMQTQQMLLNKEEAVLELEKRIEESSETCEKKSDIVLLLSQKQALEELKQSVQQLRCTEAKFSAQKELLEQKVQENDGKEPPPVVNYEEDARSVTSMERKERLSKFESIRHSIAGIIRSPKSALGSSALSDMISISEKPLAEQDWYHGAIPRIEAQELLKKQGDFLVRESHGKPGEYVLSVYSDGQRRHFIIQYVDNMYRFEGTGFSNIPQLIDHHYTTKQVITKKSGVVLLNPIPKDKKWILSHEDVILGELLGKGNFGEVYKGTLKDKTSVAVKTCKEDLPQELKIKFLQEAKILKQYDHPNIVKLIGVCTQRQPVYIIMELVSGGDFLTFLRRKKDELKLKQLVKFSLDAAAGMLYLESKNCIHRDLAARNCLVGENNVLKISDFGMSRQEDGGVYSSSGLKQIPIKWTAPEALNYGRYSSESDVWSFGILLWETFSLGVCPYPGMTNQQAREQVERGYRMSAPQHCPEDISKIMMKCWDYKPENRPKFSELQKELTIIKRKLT
UniProt P08631: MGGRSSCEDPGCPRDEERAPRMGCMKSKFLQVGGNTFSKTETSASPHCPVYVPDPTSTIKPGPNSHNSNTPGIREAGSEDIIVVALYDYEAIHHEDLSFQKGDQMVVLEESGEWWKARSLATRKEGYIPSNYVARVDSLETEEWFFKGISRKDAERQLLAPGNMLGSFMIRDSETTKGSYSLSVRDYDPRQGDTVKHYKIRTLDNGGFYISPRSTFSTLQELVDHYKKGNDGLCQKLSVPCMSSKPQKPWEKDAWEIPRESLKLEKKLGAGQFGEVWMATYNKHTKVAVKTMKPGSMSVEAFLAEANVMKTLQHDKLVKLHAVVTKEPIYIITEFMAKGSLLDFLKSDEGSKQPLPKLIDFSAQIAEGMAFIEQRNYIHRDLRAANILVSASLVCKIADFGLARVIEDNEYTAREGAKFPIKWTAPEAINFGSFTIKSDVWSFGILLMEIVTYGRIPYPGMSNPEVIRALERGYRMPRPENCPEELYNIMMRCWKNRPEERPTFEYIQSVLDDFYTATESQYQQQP
UniProt P45984: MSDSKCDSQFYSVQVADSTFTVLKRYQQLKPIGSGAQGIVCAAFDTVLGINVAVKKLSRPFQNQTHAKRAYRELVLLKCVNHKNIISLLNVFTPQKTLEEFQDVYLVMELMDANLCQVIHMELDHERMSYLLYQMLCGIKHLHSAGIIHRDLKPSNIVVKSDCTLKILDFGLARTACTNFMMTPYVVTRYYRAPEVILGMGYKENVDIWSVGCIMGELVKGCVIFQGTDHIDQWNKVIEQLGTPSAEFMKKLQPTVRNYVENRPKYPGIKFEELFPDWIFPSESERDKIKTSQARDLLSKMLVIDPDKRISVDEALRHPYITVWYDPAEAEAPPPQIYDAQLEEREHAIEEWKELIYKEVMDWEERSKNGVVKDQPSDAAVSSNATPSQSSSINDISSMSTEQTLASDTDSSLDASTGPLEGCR
UniProt P53355: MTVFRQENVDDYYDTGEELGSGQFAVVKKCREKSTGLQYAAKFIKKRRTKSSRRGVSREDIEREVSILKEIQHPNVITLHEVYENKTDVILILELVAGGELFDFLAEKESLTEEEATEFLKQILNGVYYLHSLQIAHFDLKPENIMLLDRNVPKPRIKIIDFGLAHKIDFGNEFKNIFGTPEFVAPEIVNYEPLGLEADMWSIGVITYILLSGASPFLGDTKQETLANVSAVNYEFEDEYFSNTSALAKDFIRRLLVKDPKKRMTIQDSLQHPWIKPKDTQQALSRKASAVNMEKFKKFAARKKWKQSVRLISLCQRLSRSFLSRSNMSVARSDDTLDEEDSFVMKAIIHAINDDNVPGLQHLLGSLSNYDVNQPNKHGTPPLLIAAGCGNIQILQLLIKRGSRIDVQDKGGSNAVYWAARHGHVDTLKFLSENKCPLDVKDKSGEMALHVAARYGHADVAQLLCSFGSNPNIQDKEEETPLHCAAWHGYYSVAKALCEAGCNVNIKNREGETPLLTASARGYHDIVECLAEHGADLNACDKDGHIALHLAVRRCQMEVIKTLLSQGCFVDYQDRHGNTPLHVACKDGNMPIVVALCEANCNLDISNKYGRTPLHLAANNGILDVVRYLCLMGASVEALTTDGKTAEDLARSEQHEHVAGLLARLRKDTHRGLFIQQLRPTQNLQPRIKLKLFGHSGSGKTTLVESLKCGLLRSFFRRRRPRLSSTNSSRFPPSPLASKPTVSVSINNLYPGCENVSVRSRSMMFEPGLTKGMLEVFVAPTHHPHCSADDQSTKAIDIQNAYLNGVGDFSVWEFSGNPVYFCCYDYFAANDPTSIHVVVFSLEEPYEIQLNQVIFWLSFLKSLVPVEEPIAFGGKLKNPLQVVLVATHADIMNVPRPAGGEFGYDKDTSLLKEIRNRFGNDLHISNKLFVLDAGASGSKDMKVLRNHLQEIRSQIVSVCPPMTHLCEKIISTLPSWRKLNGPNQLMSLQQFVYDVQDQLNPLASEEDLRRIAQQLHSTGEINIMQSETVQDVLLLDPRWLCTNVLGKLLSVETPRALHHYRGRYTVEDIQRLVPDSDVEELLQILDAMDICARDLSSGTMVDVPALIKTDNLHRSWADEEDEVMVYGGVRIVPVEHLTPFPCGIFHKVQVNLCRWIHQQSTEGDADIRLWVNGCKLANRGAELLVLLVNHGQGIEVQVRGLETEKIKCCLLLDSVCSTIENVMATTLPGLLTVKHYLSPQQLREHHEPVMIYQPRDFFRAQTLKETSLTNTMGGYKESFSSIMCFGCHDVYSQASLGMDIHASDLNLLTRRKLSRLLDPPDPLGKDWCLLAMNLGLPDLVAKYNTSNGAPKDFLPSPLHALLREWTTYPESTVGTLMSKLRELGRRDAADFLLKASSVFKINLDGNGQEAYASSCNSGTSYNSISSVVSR
UniProt P27361, whole entry: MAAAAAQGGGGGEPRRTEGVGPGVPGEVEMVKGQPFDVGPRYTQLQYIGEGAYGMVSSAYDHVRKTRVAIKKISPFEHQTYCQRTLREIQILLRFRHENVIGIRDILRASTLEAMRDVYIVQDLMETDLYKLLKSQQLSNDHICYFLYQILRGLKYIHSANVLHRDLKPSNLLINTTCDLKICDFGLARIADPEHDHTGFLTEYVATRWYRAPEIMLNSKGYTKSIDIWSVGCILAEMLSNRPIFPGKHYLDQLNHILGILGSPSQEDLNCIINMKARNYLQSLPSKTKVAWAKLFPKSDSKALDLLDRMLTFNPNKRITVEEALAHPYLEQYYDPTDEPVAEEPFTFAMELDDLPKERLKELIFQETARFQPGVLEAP
UniProt O96017, whole entry: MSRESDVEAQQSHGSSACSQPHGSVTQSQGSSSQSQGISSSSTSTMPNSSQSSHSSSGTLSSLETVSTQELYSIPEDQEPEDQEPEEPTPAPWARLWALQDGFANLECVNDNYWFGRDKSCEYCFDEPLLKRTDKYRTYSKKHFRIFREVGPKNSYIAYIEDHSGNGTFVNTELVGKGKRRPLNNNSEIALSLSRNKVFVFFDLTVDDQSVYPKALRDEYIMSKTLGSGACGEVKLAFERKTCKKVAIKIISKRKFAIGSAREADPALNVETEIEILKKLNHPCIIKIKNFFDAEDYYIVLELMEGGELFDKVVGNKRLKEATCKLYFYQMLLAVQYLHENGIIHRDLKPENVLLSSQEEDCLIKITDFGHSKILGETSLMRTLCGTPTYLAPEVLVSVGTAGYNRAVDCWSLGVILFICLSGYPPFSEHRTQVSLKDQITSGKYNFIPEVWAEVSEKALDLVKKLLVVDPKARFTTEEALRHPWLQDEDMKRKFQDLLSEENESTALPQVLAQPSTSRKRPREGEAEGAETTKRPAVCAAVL

Tests used:
Test in all cases: apparent dissociation constant pKd app (kinobead competition) (-log10(M)); higher = stronger binding
[1] = biological target: MAP3K11 (UniProt Q16584)
[2] = biological target: MYLK (UniProt Q15746)
[3] = biological target: IRAK4 (UniProt Q9NWZ3)
[4] = biological target: RPS6KA1 (UniProt Q15418)
[5] = biological target: T1, MYLK3 (UniProt Q32MK0)
T1 sequence (whole entry): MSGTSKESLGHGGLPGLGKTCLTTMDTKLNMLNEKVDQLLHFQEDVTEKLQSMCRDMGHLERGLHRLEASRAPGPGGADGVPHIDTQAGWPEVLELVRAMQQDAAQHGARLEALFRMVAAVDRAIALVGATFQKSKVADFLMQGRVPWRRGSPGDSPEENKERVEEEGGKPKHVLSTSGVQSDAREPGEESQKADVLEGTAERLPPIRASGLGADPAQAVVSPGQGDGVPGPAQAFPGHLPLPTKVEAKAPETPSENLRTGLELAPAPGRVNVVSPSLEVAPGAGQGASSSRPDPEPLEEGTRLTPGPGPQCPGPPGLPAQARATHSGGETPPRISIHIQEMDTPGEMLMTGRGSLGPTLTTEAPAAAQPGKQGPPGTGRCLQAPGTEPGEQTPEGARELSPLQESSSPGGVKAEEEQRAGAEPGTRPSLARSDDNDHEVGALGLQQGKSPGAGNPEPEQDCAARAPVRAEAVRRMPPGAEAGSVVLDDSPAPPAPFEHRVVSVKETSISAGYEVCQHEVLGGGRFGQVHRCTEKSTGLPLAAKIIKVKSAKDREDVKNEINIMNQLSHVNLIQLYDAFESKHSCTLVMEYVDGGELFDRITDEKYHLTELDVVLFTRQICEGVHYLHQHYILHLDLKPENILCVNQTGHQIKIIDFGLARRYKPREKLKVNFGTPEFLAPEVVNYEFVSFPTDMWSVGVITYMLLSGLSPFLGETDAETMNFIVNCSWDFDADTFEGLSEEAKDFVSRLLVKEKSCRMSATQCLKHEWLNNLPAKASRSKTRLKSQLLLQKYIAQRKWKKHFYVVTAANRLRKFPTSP

[6] = biological target: FER (UniProt P16591)
[7] = biological target: T2, PRKX (UniProt P51817)
T2 sequence (whole entry): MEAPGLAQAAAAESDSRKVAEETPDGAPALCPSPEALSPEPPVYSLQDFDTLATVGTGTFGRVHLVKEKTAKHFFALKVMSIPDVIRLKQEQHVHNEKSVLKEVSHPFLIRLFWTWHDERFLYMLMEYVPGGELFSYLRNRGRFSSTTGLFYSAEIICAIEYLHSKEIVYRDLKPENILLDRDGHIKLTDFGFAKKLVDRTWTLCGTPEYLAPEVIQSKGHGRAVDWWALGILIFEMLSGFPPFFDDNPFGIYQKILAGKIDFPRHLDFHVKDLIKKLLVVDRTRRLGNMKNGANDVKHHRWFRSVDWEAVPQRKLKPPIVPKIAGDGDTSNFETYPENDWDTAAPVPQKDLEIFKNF

[8] = biological target: HCK (UniProt P08631)
[9] = biological target: MAPK9 (UniProt P45984)
[10] = biological target: DAPK1 (UniProt P53355)
[11] = biological target: RPS6KA3 (UniProt P51812)
[12] = biological target: CSNK1E (UniProt P49674)
[13] = biological target: MAPK3 (UniProt P27361)
[14] = biological target: CHEK2 (UniProt O96017)
[15] = biological target: LOC100128443
[16] = biological target: MINK1 (UniProt Q8N4C8)
[17] = biological target: MAST3 (UniProt O60307)

NC(=O)c1cccc2cn(-c3ccc([C@@H]4CCCNC4)cc3)nc12 [Niraparib]
apparent dissociation constant pKd app (-log10) [1]: < 4.7
apparent dissociation constant pKd app (-log10) [2]: < 4.5
apparent dissociation constant pKd app (-log10) [3]: < 4.6
apparent dissociation constant pKd app (-log10) [4]: < 4.5
apparent dissociation constant pKd app (-log10) [5]: < 4.5
apparent dissociation constant pKd app (-log10) [6]: < 4.7
apparent dissociation constant pKd app (-log10) [7]: < 4.6
apparent dissociation constant pKd app (-log10) [8]: < 4.7
apparent dissociation constant pKd app (-log10) [9]: < 5
apparent dissociation constant pKd app (-log10) [10]: < 4.5
apparent dissociation constant pKd app (-log10) [11]: < 4.5
apparent dissociation constant pKd app (-log10) [12]: < 4.5
apparent dissociation constant pKd app (-log10) [13]: < 4.5
apparent dissociation constant pKd app (-log10) [14]: < 4.5
apparent dissociation constant pKd app (-log10) [15]: < 4.6
apparent dissociation constant pKd app (-log10) [16]: < 4.6
apparent dissociation constant pKd app (-log10) [17]: < 4.7

O=C(c1cc(Cc2n[nH]c(=O)c3ccccc23)ccc1F)N1CCN(C(=O)C2CC2)CC1 [Olaparib]
apparent dissociation constant pKd app (-log10) [1]: < 4.7
apparent dissociation constant pKd app (-log10) [2]: < 4.5
apparent dissociation constant pKd app (-log10) [3]: < 4.6
apparent dissociation constant pKd app (-log10) [4]: < 4.5
apparent dissociation constant pKd app (-log10) [5]: < 4.5
apparent dissociation constant pKd app (-log10) [6]: < 4.7
apparent dissociation constant pKd app (-log10) [7]: < 4.6
apparent dissociation constant pKd app (-log10) [8]: < 4.7
apparent dissociation constant pKd app (-log10) [9]: < 5
apparent dissociation constant pKd app (-log10) [10]: < 4.5
apparent dissociation constant pKd app (-log10) [11]: < 4.5
apparent dissociation constant pKd app (-log10) [12]: < 4.5
apparent dissociation constant pKd app (-log10) [13]: < 4.5
apparent dissociation constant pKd app (-log10) [14]: < 4.5
apparent dissociation constant pKd app (-log10) [15]: < 4.6
apparent dissociation constant pKd app (-log10) [16]: < 4.6
apparent dissociation constant pKd app (-log10) [17]: < 4.7

Cn1ncnc1[C@H]1c2n[nH]c(=O)c3cc(F)cc(c23)N[C@@H]1c1ccc(F)cc1 [Talazoparib]
apparent dissociation constant pKd app (-log10) [1]: < 4.7
apparent dissociation constant pKd app (-log10) [2]: < 4.5
apparent dissociation constant pKd app (-log10) [3]: < 4.6
apparent dissociation constant pKd app (-log10) [4]: < 4.5
apparent dissociation constant pKd app (-log10) [5]: < 4.5
apparent dissociation constant pKd app (-log10) [6]: < 4.7
apparent dissociation constant pKd app (-log10) [7]: < 4.6
apparent dissociation constant pKd app (-log10) [8]: < 4.7
apparent dissociation constant pKd app (-log10) [9]: < 5
apparent dissociation constant pKd app (-log10) [10]: < 4.5
apparent dissociation constant pKd app (-log10) [11]: < 4.5
apparent dissociation constant pKd app (-log10) [12]: < 4.5
apparent dissociation constant pKd app (-log10) [13]: < 4.5
apparent dissociation constant pKd app (-log10) [14]: < 4.5
apparent dissociation constant pKd app (-log10) [15]: < 4.6
apparent dissociation constant pKd app (-log10) [16]: < 4.6
apparent dissociation constant pKd app (-log10) [17]: < 4.7
